Data on two molecules can be found in patent US9556471B2, “Enzyme containing liquid and delivery system for detection of analytes on surfaces” (dated 2017).

Sequences of proteins named here, by UniProt entry; tags and fusion partners are left off. Residues count along the entry.
UniProt P22303, 32-614 limits assumed: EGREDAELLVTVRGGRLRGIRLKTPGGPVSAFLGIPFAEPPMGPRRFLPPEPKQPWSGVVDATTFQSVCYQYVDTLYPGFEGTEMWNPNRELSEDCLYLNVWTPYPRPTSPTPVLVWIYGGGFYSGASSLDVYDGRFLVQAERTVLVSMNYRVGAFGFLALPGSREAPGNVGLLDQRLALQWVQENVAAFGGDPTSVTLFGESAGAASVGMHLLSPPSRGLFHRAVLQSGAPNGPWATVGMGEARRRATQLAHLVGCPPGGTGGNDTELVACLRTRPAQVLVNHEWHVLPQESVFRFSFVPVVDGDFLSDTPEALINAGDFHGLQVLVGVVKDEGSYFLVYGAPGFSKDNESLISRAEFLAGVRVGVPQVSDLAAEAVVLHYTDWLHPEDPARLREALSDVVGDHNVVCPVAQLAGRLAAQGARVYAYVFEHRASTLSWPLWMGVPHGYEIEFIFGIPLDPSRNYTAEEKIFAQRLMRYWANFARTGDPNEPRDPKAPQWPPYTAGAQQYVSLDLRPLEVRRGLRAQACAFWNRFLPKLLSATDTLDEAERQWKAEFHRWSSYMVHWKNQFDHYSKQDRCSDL

One test deals with AChE (Homo sapiens, UniProt P22303). The test can be described thus: AChE/urease liquid with carboxy-SNARF, organophosphate detection via fluorescence measurement. Conditions: 2 mg dichlorvos in 10 mL sensor (0.2 mg/mL), 25 degrees C.
A further test has as its target urease (Canavalia ensiformis, UniProt P07374). Briefly: Sprayed urease enzyme containing liquid, urea detection via visible color change. The settings on record: surface with 1 mL of 100 mM urea per tile; cresol red indicator.

Bounds are passed on as bounds.

Regarding `COP(=O)(OC)OC=C(Cl)Cl`, the “emission wavelength of the fluorescent indicator” value at AChE (time 0 minutes) amounted to 600 nm; at AChE (time 8 minutes, shift due to inhibition of AChE) it was 650 nm.
Take urea: the “time for sprayed sensor to turn from yellow to red (catalytic hydrolysis of urea)” value at urease was no more than 5 min.
